Target: mitochondrial benzodiazepine receptor (MBR) (Rattus norvegicus, UniProt P16257)
Assay: Binding assay of mitochondrial benzodiazepine receptor (MBR), [3H]4'-chlorodiazepam (Ro5-4864), rat kidney membrane-preparation
Details: rat kidney membranes, [3H]4'-chlorodiazepam 0.5 nM, 0° C. for 150 minutes

Sequences of proteins named here, by UniProt entry; tags and fusion partners are left off.
UniProt P16257, whole entry: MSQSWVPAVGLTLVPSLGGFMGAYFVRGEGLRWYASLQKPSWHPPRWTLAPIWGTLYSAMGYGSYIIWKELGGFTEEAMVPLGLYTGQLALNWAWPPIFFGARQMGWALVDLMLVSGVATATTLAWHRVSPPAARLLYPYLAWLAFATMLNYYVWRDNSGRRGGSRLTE

Compound	IC50 [nM]
O=C(C1Cc2ccccc2N1c1ncccn1)N1CCCCCC1 (racemic)	6.5
CC1CCN(C(=O)[C@@H]2Cc3ccccc3N2c2ccc(=O)n(C)n2)CC1	30.9
CCC1CCN(C(=O)[C@@H]2Cc3ccccc3N2c2ccc(=O)n(C)n2)CC1	13.3

From patent publication US20080221114A1, “2-(Cyclic Aminocarbonyl) Indoline Derivative and Medicinal Composition Containing the Same” (priority 2005, published 2008)
